According to PubChem BioAssay AID463079 (The Scripps Research Institute Molecular Screening Center, 2010):
This is a selection; strong and weak results do not stand in their true shares. Activity calls are given as the source filed them.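 How the source made its calls: active means inhibition above that plate's mean sample inhibition plus 3 SD (cut at about 26% in these data); inactive means the rest.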

Test: nonselective Gq signaling inhibition in CHO cells – cell-based, fluorescence, Fluo-8 calcium dye, counter-screen for OX1R antagonist project, primary screen (AID 463079);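 further: 0% = ATP-challenged DMSO wells and 100% = DMSO wells without ATP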
Conditions: parental CHO-K1, ATP-induced calcium, Fluo-8 fluorescence; at 5.6 µM; stronger effect = higher value
In the case of `CCC(=O)N(c1ccccc1)C1(COC)CCN(CCc2cccs2)CC1`, the inhibition is reported as inactive: -21.4%. With `CCC(=O)N(c1ccccc1)C1(COC)CCN(CCn2nnn(CC)c2=O)CC1` the inhibition was inactive: -3.86%. With `CCC(=O)N(c1ccccc1)C1CCN(CCc2ccccc2)CC1` the inhibition was inactive: -17.3%.
